Measured values taken from article PMC9599641, “TNP Analogues Inhibit the Virulence Promoting IP3-4 Kinase Arg1 in the Fungal Pathogen Cryptococcus neoformans” (Biomolecules, 2022).

Test system: Nc1ncnc2c1ncn2[C@@H]1O[C@H](COP(=O)(O)OP(=O)(O)OP(=O)(O)O)[C@@H](O)[C@H]1O
Test: purified protein, by the assay type
Details: other: 200 µM IP3, ATP 25–400 µM; mean ± SEM; pH 6.8

Q: How did the Km turn out when CnArg1 (Cryptococcus neoformans H99) was run?
A: 300 ± 67 µM

Q: And the Vmax?
A: 12 ± 1.5 µmol ATP/mg protein/min
